Laboratory results taken from patent US10052359B2, “Composition for enhancing memory and learning function and/or cognitive function” (KIRIN KABUSHIKI KAISHA, priority 2014, dated 2018).

Tested on: scopolamine model of poor memory
Test: Y-maze test (spontaneous alternation behavior) in mice given scopolamine
Type: in vivo
Conditions: synthetic peptide 0.1-3 μmol/kg orally; scopolamine 0.80 mg/kg i.p.
Protocol: FIG. 1A illustrates a summary of methods of evaluating the memory and learning function and the cognitive function. To 6-week-old male CD-1 mice, 1 mg/kg of the peptide extract or 0.1-3 μmol/kg of a synthetic peptide is orally administered forcibly into stomach and 40 minutes later 0.80 mg/kg of scopolamine hydrochloride was administered intraperitoneally to cause memory impairment. 20 minutes after the intraperitoneal administration of scopolamine, the Y-maze test was conducted to evaluate the spontaneous alternation behavior.
Mice originally have a habit of selecting a route different from the route selected immediately before. Therefore a mouse placed in a Y-maze having 3 arms equivalent in width, length, and the like normally enters the arm different from the arm that the mouse entered immediately before. The Y-maze test is a test to evaluate the short-term memory using the habit of mice.
In the Y-maze test, a Y-maze was used as an experimental apparatus having 3 arms each connected at an angle of 120 degrees and each having a length of 25 cm, a wall high of 20 cm, and a floor width of 5 cm.
Mice were placed in the tip of one of the aims in the Y-maze and the orders of the arms that the mice entered when the mice were allowed to search freely for 8 minutes were recorded. […] 10 mice per group were used for the experiment and the average and the standard error were determined. […]

Row | Substance | enhancing effect on the memory and learning function and the cognitive function (spontaneous alternation behavior rate)
1 | tryptophan-valine (WV; listed as Bos taurus) | found to have an enhancing effect on the memory and learning function and the cognition function in a concentration-dependent manner
2 | tryptophan-leucine (WL; listed as Bos taurus) | found to have an enhancing effect on the memory and learning function and the cognition function in a concentration-dependent manner
